Test results reported in paper PMC5361737, “Potent and Selective KDM5 Inhibitor Stops Cellular Demethylation of H3K4me3 at Transcription Start Sites and Proliferation of MM1S Myeloma Cells” (Cell Chemical Biology, 2017).

Protein sequences, listed by entry. Tags and fused reporters are not part of them.
UniProt O15054, whole entry: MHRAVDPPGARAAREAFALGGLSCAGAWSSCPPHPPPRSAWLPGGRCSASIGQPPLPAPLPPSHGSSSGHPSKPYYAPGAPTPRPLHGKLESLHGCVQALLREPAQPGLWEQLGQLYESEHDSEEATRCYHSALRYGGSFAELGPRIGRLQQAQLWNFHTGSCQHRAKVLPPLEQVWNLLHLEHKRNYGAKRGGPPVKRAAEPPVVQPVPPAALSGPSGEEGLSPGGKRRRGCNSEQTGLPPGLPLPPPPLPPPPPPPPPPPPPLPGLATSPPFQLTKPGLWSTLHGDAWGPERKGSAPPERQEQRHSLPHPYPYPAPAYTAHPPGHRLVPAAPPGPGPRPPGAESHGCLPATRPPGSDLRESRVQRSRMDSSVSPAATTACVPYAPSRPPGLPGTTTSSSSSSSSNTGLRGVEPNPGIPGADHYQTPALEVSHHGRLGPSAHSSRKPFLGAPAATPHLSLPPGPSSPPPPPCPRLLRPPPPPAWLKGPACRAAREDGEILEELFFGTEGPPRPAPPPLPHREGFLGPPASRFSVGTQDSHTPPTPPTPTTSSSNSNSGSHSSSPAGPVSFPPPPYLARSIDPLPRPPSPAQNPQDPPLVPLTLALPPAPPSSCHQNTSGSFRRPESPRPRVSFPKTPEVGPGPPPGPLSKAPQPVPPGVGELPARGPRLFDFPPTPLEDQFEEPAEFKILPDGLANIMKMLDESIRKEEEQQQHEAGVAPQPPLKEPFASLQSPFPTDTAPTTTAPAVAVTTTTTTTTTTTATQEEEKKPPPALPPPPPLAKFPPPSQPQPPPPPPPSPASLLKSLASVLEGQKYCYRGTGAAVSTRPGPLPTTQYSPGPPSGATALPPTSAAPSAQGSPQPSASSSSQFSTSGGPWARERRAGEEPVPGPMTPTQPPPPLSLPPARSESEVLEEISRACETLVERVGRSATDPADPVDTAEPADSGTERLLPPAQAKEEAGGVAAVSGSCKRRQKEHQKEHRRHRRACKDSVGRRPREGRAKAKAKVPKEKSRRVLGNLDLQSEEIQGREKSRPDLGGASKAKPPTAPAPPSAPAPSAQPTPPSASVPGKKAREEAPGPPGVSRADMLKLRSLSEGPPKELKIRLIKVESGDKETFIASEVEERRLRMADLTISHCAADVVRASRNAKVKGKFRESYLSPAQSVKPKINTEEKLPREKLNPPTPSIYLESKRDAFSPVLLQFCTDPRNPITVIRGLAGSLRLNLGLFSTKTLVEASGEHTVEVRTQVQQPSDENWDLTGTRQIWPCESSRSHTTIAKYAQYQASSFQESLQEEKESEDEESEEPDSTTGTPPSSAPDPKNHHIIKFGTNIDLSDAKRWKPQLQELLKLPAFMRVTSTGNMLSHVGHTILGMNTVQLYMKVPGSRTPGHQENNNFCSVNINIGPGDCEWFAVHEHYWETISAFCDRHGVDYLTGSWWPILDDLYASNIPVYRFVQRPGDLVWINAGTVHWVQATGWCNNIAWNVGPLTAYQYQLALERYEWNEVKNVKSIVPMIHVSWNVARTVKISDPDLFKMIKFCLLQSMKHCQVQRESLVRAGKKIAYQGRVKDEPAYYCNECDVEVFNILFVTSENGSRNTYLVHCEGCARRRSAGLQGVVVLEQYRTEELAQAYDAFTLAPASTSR

Biological target: KDM6B (Homo sapiens, UniProt O15054)
Assay: 2-Oxoglutarate oxygenase assay panel, AlphaScreen assay

Structure (SMILES): O.O=C(O)C(F)(F)F.O=C(O)C(F)(F)F.O=C(O)c1ccnc(CN2CCNCC2)c1 [KDOAM-1]
- IC50: > 100 µM
